Test [1] is described as follows: NCI Yeast Anticancer Drug Screen. Data for the rad50 strain (AID 155).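 Note: 0% = growth of vehicle-only cultures of the same strain.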 The following applies: S. cerevisiae rad50 strain growth inhibition, hits give high values.
Test [2] in a line: NCI Yeast Anticancer Drug Screen. Data for the mec2-1 strain (AID 157). The following applies: S. cerevisiae mec2-1 strain, hits give high values.
The nature of test [3]: NCI Yeast Anticancer Drug Screen. Data for the sgs1 mgt1 strain (AID 161).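 Note: 0% = growth of cultures given vehicle only.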 The following applies: S. cerevisiae sgs1 mgt1 strain, hits give high values.
A short description of test [4]: NCI Yeast Anticancer Drug Screen. Data for the cln2 rad14 strain (AID 165).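 Note: 0% = growth equal to vehicle treated cultures.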 Particulars: S. cerevisiae cln2 rad14 strain, hits give high values.
Test [5] in a line: NCI Yeast Anticancer Drug Screen. Data for the mlh1 rad18 strain (AID 175). Particulars: S. cerevisiae mlh1 rad18 strain growth inhibition, hits give high values.
Test [6] in a line: NCI Yeast Anticancer Drug Screen. Data for the bub3 strain (AID 167). The following applies: S. cerevisiae bub3 mutant strain, hits give high values.
Where [7] appears, read: at 5.0 µM (retest, dose inferred, filed as 0.5).
The mark [8] stands for this setting: at 50.0 µM (retest, dose inferred, filed as 5.0).

The structures appear in SMILES notation. This is a selection; strong and weak results do not stand in their true shares. Some structures show a salt or complex split into parts, the way the source records it. A structure can be active in one record and inactive in another. Activity calls are given as the source filed them. Cut-off read from the data, not from the text of the source: active = growth inhibition above about 70%; inactive = the rest.

Take `O=[N+]([O-])c1cc([N+](=O)[O-])c(O)c([N+](=O)[O-])c1.OCCN(CCCl)CCCl`: the growth inhibition in test [1] (setting [7]) was inactive: -2%; in test [1] (setting [8]), inactive: 57%; in test [2] (setting [7]), inactive: 11%; in test [2] (setting [8]), inactive: 18%; in test [3] (setting [7]), inactive: 5%; in test [3] (setting [8]), inactive: 41%. Also, the growth inhibition in test [4] (setting [7]) is inactive: -15%; in test [4] (setting [8]), inactive: 2%; in test [5] (setting [7]), inactive: 45%; in test [5] (setting [8]) it was active: 87%.

Take `O=[N+]([O-])c1cc([N+](=O)[O-])c(S(=O)(=O)[O-])c([N+](=O)[O-])c1.OCC[S+](CCO)CCSCCCl`: the growth inhibition is inactive: 8% in test [1] (setting [7]); inactive: 22% in test [1] (setting [8]); inactive: 9% in test [2] (setting [7]); inactive: 34% in test [2] (setting [8]); inactive: 12% in test [3] (setting [7]); inactive: 43% in test [3] (setting [8]). Further, the growth inhibition is inactive: 3% in test [4] (setting [7]); inactive: 24% in test [4] (setting [8]); inactive: 3% in test [6] (setting [7]); inactive: 15% in test [6] (setting [8]); inactive: 27.8% in test [6] (at 50.0 µM); inactive: 10% in test [5] (setting [7]). In test [5] (setting [8]), the growth inhibition is inactive: 32%.

Consider `CN(C)C(=O)OCC[N+](C)(C)CCC[N+](C)(C)CCOC(=O)N(C)C.O=[N+]([O-])c1cc([N+](=O)[O-])c([O-])c([N+](=O)[O-])c1`, for which the growth inhibition in test [6] (at 50.0 µM) is inactive: -1.6%.

Values taken from PubChem BioAssay (NCI).
